The record followed here is patent US4277465A, “Adjuvant for promoting absorption of therapeutically active substances through the digestive tract” (Kyoto Yakuhin Kogyo Kabushiki Kaisha, priority 1978, dated 1981).

This data set can be described thus: Rectal insulin suppository with Compound 3, blood glucose concentration (glucoseoxidase method). The following applies: control: insulin alone added to base. The procedure:
The test was conducted by the glucoseoxidase method. […] The largest depression of blood glucose from the pre-medication level was expressed in % response.

As for insulin [reference compound], the “absorption of insulin (in words)” value is “no absorption of insulin”.
